Assay results: patent publication US20070036775A1, “Method of modulating or examining Ku70 levels in cells” (priority 2001, published 2007)

System: HEK293T cells
Experiment: Bax-induced apoptosis in HEK293T cells (pcDNA3-Bax transfection)
Type: cell-based
Settings: HEK293T cells co-transfected with pcDNA3-Bax and Ku70 construct, 24 hours
Experimental: FIG. 1. […] FIG. 1A: Scheme of Ku70 full-length, Bax-suppressor clones (clone 1 and 2) obtained by yeast-based functional screening using pGilda-Bax plasmid for Bax expression as reported (Xu, et al., 2000). FIG. 1B: Ku70 suppresses Bax-induced apoptosis in HEK293T cells as well as XIAP. 10^6 cells were transfected with 1.0 μg of pcDNA3 (Control) or pcDNA3-Bax (Bax) together with 0.5, 1.0, or 2.0 μg of pCMV-2B-Ku70 wt (Ku70 wt) or pcDNA3-Myc-XIAP (XIAP). In “Bax+Vector” group, 1.0 μg pcDNA3-Bax and 2 ug of pCMV-2B were used, respectively (Control and Bax+Vector). All the cells were also co-transfected with 0.5 μg pEGFP for the marking of transfected cells. Apoptosis in the transfected cells was analyzed 24 hours following transfection with Hoechst dye staining of the nucleus as described in Experimental Procedure. FIG. 1C: Time course of the suppression of Bax-induced apoptosis by Ku70 and XIAP in HEK293T cells. […] Apoptosis in the transfected cells was analyzed at 24 hours (Control) or the indicated time points following transfection. […] After 24 hours, apoptotic cells were counted as described in FIG. 1B. […] The number of apoptotic cells was determined as described in FIG. 1B. […] Apoptosis in the transfected cells was analyzed at the indicated periods following transfection as described in FIG. 1C. […]

Substance: Ku70: human full length Ku70, 70 kDa subunit of Ku-complex (609 amino acids), expressed from pCMV-2B plasmid
- effect on Bax-induced apoptosis: suppressed Bax-induced apoptosis
